From patent publication US8268813B2, “Zilpaterol enantiomer compositions and methods of making and using such compositions” (Intervet International B.V., priority 2006, dated 2012)
Read-outs that look alike come from different tables or passages of the source.

The chains behind the UniProt entries cited, without tags or fusion partners.
UniProt Q8K4Z4, whole entry: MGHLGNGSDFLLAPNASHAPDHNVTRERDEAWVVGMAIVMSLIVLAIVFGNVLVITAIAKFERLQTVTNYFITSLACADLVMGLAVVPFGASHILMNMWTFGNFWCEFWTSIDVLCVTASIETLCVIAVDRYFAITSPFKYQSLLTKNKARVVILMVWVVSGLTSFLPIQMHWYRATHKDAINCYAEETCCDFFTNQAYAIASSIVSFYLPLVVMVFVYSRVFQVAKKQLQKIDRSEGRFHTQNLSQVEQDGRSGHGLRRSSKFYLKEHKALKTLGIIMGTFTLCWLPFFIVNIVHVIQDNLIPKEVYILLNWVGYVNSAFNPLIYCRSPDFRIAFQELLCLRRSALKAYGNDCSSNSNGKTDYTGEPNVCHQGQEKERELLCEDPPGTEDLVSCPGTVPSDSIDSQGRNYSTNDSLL

Molecular target: β2 adrenergic receptors in guinea pig trachea (Cavia porcellus, UniProt Q8K4Z4)
Conditions: concentration 3.0E−07 M

Percent of the Control Response to Salbutamol at 3.0E−07 M, Mean (Table 6): 101%
Percent of the Control Response to Salbutamol at 3.0E−07 M, Mean (Table 7): 104%
SMILES: CC(C)(C)NCC(O)c1ccc(O)c(CO)c1 (centres unmarked) [Salbutamol, salbutamol]
